Data on one molecule can be found in paper PMC12667481, “APOL2 Stabilizes Ku80 to Confer NHEJ‐Mediated Radioresistance in Gastric Cancer” (Advanced Science, 2025).

This experiment concerns the target T1, Flag-Ku80 (UniProt P13010 1-732).
T1 construct: Ku80 (XRCC5); The origin of the Flag-Ku80 plasmid is not described in the plasmid section; also called XRCC5; source: HEK293T, transfected, in lysate (co-IP); HEK293T, transfected, purified on anti-Flag agarose and eluted with 3xFLAG peptide (pull-down)
Description: pull-down; purified GST or GST-APOL2 (5 µg) incubated overnight at 4 °C with Flag-Ku80 or Flag-Ku70 eluted from anti-Flag agarose; glutathione agarose in PBS with protease inhibitors for 2 h; washed three times with PBS; Western blot. The settings on record: both partners purified. For orientation: Immunoblotting shows a protein as a band on a membrane.

B1: GST-APOL2 (natural protein, UniProt Q9BQE5 1-337, looked up)
chain: MNPESSIFIEDYLKYFQDQVSRENLLQLLTDDEAWNGFVAAAELPRDEADELRKALNKLASHMVMKDKNRHDKDQQHRQWFLKEFPRLKRELEDHIRKLRALAEEVEQVHRGTTIANVVSNSVGTTSGILTLLGLGLAPFTEGISFVLLDTGMGLGAAAAVAGITCSVVELVNKLRARAQARNLDQSGTNVAKVMKEFVGGNTPNVLTLVDNWYQVTQGIGRNIRAIRRARANPQLGAYAPPPHVIGRISAEGGEQVERVVEGPAQAMSRGTMIVGAATGGILLLLDVVSLAYESKHLLEGAKSESAEELKKRAQELEGKLNFLTKIHEMLQPGQDQ
notes: Apolipoprotein L2 (APOL2)
B1: the binding result is “binds”.
